Assay: Pharmacokinetic study in rats after oral administration of SYD extract and its single and combined TCM extracts (UPLC-MS/MS of plasma)
Settings: male, Sprague-Dawley, rat, n = 6

In the case of `O=C(/C=C/c1ccc(O)c(O)c1)O[C@@H]1C[C@](O)(C(=O)O)C[C@@H](O)[C@H]1O` [Chlorogenic acid, chlorogenic acid], the Tmax (4.28 g/kg, oral SN + AS + GU extract 4.28 g/kg) is reported as 1.58 ± 0.38 h, the Tmax (4.73 g/kg, oral LJ + SN + GU extract 4.73 g/kg) is reported as 1.67 ± 0.26 h and the Tmax (5.43 g/kg, oral LJ + SN + AS extract 5.43 g/kg) is reported as 1.58 ± 0.38 h. The Tmax (8.25 g/kg, oral SYD extract 8.25 g/kg) was 1.67 ± 0.26 h.

Reference: PMC6150365, “Simultaneous Determination of Seven Components in Rat Plasma by the UPLC-MS/MS Method and Application of Pharmacokinetic Studies to SimiaoYong’an Decoction” (Molecules : A Journal of Synthetic Chemistry and Natural …, 2017)
